Source: PubChem BioAssay AID2099 (Broad Institute, 2009)
This is a selection; strong and weak results do not stand in their true shares. The source made the active and inactive calls.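 Rule for the calls: active = more than half of a compound's replicate wells show inhibition beyond 50%, single wells judged on their own value; inconclusive = some, but no more than half, of replicates pass 50% inhibition; inactive = no replicate passes 50% inhibition.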

Chains of the proteins cited; added tags and fusions are not shown. Residues count along the entry.
UniProt Q9H3R0, 1-420 limits assumed: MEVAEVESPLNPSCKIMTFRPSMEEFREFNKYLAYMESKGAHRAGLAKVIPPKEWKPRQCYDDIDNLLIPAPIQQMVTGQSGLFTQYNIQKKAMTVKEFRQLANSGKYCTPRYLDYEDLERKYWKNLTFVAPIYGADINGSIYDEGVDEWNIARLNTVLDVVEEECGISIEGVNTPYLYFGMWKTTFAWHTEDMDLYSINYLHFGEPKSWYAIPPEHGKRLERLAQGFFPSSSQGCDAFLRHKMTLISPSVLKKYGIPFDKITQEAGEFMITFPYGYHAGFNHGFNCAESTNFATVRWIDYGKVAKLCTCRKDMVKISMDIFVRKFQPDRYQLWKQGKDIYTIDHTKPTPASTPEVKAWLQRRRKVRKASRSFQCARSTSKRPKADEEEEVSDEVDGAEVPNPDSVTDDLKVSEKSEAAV

The compounds below were run against Lysine-specific demethylase 4C (Homo sapiens) (UniProt Q9H3R0) (assay: inhibitors of GASC-1 histone demethylase, primary screen, biochemical, fluorescence, DELFIA europium (AID 2099;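 note: signal counts dimethyl H3K9 product captured on neutravidin plate; 0% = median of DMSO wells and 100% = 0.3 times that DMSO median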)). Conditions: GST-JMJD2C(1-420) H3K9me3 demethylation, at 2.35 µM, active compounds read high.
In the case of NC(=O)Nc1ccc([As](=O)(O)O)cc1, the inhibition is reported as inactive: -1.31%.
With O=[N+]([O-])c1ncn(CCn2cnc([N+](=O)[O-])n2)n1 the inhibition was inactive: -1.2%.
